Source: ChEMBL document CHEMBL6153144, “Conformational Role of Methyl in the Potency of Cyclohexane-Substituted Squaramide CCR6 Antagonists” (J Med Chem, 2025)

Amino acid sequences for entries named in this document (tags omitted).
UniProt P25025, whole entry: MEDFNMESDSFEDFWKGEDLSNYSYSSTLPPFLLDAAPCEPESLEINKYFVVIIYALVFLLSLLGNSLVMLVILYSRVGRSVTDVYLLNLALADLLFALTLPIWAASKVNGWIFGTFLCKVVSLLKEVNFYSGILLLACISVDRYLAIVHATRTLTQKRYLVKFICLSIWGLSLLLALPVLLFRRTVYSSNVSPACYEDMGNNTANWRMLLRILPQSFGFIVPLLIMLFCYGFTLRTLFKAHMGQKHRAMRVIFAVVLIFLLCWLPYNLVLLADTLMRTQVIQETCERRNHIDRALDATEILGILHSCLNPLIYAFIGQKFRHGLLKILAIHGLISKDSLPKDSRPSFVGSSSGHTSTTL

Experiments:
[1] = target: T1, C-C chemokine receptor type 7 (Homo sapiens) (UniProt P32248); test: Antagonist activity at CCR7 (unknown origin) by PathHunter beta-arrestin EFC technology relative to control; assay type: functional; details: filed as antagonist, concentration not given here
T1 sequence (whole entry): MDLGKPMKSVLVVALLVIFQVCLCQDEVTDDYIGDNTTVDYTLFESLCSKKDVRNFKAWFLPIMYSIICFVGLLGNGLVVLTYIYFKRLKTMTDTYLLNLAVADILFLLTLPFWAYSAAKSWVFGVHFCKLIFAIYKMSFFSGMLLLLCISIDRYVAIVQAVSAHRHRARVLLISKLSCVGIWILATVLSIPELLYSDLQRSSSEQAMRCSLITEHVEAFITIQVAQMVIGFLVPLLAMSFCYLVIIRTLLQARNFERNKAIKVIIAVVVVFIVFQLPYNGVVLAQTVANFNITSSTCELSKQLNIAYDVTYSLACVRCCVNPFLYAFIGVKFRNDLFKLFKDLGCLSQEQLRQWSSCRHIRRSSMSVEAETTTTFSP

[2] = target: C-X-C chemokine receptor type 2 (Homo sapiens) (UniProt P25025); test: Antagonist activity at CXCR2 (unknown origin) by PathHunter beta-arrestin EFC technology relative to control; assay type: functional; details: filed as antagonist, concentration not given here

inhibition [1]: 75%
inhibition [2]: 88%
SMILES: C[C@@H]1OCCC[C@]1(C)Nc1c(Nc2ccnc(C(=O)N(C)C)c2O)c(=O)c1=O
